Patent US11311528B2, “Oxo-tetrahydro-isoquinoline carboxylic acids as STING inhibitors” (Merck Sharp & Dohme Corp., priority 2018, dated 2022)

Amino acid sequences for entries named in this document (tags omitted). A change or cut given only in a name is not applied to a line headed by its entry.
UniProt Q86WV6: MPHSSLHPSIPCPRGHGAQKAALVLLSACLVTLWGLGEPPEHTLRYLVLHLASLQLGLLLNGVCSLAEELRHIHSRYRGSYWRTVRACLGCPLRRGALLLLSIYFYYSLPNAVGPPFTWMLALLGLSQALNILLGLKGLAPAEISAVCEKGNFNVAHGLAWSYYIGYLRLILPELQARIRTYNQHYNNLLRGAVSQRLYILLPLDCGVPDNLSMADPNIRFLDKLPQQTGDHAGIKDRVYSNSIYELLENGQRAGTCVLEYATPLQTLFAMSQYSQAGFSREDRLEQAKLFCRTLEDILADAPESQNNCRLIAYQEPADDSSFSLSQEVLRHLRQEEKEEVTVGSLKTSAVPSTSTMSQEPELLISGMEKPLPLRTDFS

Target: STING (Homo sapiens, UniProt Q86WV6)
Settings: read-out: THP1 Cell IC50; inhibition of cGAMP mediated IFNb production in THP1 cells, six hours preincubation

`CC(C)(C)c1ccc(N2C(=O)c3cc(F)ccc3[C@H](C(=O)O)[C@H]2c2ccc3c(c2)OCCO3)cc1Cl` (single isomer, unassigned) [Compound 1-2, (3S,4S or 3R,4R)-2-(4-(tert-butyl)-3-chlorophenyl)-3-(2,3-dihydrobenzo[b][1,4]dioxin-6-yl)-7-fluoro-oxo-1,2,3,4-tetrahydroisoquinoline-4-carboxylic acid] was tested. Which IC50 did it give?
Its IC50 is 10 µM.
